Experimental data as given in PubChem BioAssay AID485364 (National Center for Advancing Translational Sciences (NCATS), 2010).
This is a selection; strong and weak results do not stand in their true shares. Active and inactive are the calls of the source. The call rests on the fitted dose curve; in most records, active means well fitted inhibition curve with a large enough effect; inconclusive means small, poorly fitted or top-dose-only effect; inactive means no such curve, though single readings can be large or run the other way.

target: Schistosoma mansoni thioredoxin glutathione reductase (TGR) (UniProt Q962Y6); test: qHTS Assay for the Inhibitors of Schistosoma Mansoni Peroxiredoxins; conditions: purified TGR, DTNB reduction, TNB absorbance 405 nm; further: nearly all actives have a fitted effect of over 60% in size
Source text: Schistosomiasis is a major neglected tropical disease that currently affects over 200 million. It is caused by different species of flatworms, such as Schistosoma mansoni. Over the last century, drugs to treat the disease have evolved from potassium antimonyl tartrate, artemisinin, oxamniquine, to praziquantel, with praziquantel remaining the universally-used single drug of choice over the past three decades. However, transmission rates have changed little with praziquantel, and there is evidence for the development of drug resistant parasites. Because there is currently no suitable alternative therapy available, there is an urgent need to identify new targets and drugs for schistosomiasis treatment. […] Recently, a quantitative high-throughput screen of the NIH Molecular Libraries Small Molecule Repository (MLSMR, ~71K at the time of the screen in 2007) was performed using an assay that targeted both TGR and peroxiredoxin2 (Prx2, an H2O2-reducing enzymatic component of the S. mansoni redox "firewall") by following the decrease of NADPH fluorescence. […] In addition, the fluorescence assay was also subject to fluorescence interference from compound library members. […] The assay followed the reduction of 5, 5'-dithiobis (2-nitrobenzoic acid) (DTNB) (Ellman's reagent) by NADPH and measured the increase in absorbance at 412 nm of the reaction product, TNB. […]
Potency means the concentration at half of the fitted maximal effect.

Row | Structure (SMILES) | Potency
1 | CC[n+]1c(/C=C/N(C)c2ccccc2)oc2ccc(Cl)cc21 | active: 50.1 µM
2 | CC[n+]1c(/C=C/N(C)c2ccccc2)oc2ccc(F)cc21 | active: 50.1 µM
